From article PMC7694328, “Synthesis and Glycosidase Inhibition Properties of Calix[8]arene-Based Iminosugar Click Clusters” (Pharmaceuticals, 2020)

Sequences of proteins named here, by UniProt entry; tags and fusion partners are left off. Residues count along the entry.
UniProt C0HJB3, 1-562 limits assumed: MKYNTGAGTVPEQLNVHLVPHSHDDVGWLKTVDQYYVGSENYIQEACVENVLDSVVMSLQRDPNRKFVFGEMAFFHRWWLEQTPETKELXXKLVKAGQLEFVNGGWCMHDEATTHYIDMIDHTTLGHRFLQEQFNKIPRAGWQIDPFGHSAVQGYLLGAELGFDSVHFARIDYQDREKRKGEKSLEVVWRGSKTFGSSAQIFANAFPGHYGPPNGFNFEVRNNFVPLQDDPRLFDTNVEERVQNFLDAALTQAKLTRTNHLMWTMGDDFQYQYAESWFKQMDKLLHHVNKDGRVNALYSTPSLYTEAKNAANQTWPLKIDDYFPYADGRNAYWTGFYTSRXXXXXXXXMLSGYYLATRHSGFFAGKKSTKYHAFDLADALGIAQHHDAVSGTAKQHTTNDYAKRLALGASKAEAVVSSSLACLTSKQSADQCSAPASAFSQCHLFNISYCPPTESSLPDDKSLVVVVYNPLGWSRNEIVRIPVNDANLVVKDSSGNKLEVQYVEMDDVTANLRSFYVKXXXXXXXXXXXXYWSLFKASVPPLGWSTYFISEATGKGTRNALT
UniProt C0HJB3, 563-981 limits assumed: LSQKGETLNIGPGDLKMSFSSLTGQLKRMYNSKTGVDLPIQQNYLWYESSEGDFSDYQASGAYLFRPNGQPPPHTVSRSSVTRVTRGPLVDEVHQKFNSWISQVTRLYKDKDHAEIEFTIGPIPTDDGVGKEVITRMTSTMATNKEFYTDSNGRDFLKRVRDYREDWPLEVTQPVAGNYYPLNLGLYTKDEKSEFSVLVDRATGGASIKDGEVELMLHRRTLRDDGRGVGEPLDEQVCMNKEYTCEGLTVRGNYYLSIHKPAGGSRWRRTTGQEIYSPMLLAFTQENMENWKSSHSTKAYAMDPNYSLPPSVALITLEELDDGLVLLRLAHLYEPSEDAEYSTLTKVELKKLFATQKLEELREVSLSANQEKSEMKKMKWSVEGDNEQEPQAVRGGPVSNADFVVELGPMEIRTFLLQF

Molecular target: Jack Bean α-mannosidase (JBα-man) (Canavalia ensiformis, UniProt C0HJB3)
Test: Inhibition assay against Jack Bean α-mannosidase (hydrolysis of p-nitrophenyl-α-D-mannopyranoside)
Conditions: for Ki: means ± SD, triplicate; for rp/n (relative inhibition potency per DNJ unit): rp/number of DNJ units
Method: p-nitrophenyl-α-D-mannopyranoside and α-mannosidase (EC 3.2.1.24, from Jack Bean, Km = 2.0 mM pH 5.5) were purchased from Sigma Aldrich(St. Louis, MO, USA).
General procedure for Inhibition assay with basic quench: Inhibitory potencies were determined spectrophotometrically (Versamax 96-well plate spectrophotometer, Molecular Devices Corporation, Sunnyvale, CA, USA) measuring the residual hydrolytic activities of the mannosidase against p-nitrophenyl-α-D-mannopyranoside in the presence and absence of the inhibitor. All kinetics were performed at 25 °C and started by enzyme addition (0.015 U/mL) in a 100 µL assay medium (acetate buffer, 0.2 M, pH = 5) containing substrate (varying concentration from Km/8 to 2Km value) in presence or absence of various concentrations of inhibitor. After 40–50 min incubation, the reaction was quenched by addition of 1M Na2CO3 (100 µL). The absorbance of the resulting solution was determined at 405 nm. Ki values were determined in duplicate or triplicate, using the Dixon and Lineweaver–Burk graphical methods with Microsoft Excel 97-03, or using non-linear regression with GraphPad Prism 7 Software. As the inhibitors are only partially soluble in water, they were dissolved in DMSO for concentrated mother solutions and DMSO/buffer for diluted solutions with a final DMSO concentration under 4% in all wells. Previously, the stability of the enzymes in presence of various concentrations of DMSO was controlled and the enzyme activity was unaffected.
General procedure for inhibition assay measured continuously: The release of p-nitrophenol was measured continuously at 385 nm to determine initial velocities. All kinetics were performed at 35 °C and started by substrate addition in a 1 mL assay medium (acetate buffer, 0.2 M, pH = 5) containing α-mannosidase (0.025 U/mL), substrate (varying concentration from Km/4 to Km value) in presence or absence of various concentrations of inhibitor. Under these conditions, the p-nitrophenolate released led to optical densities linear with both reaction time and concentration of the enzyme. Ki values were determined in duplicate or quadruplate, using the Dixon graphical method. As the inhibitors are only partially soluble in water, they were dissolved in DMSO for concentrated mother solutions and DMSO/buffer for diluted solutions with a final DMSO concentration under 5% in all vials. Previously, the stability of the enzymes in presence of various concentrations of DMSO was controlled and the enzyme activity was unaffected.

Structure (SMILES)	inhibition mode	Ki [nM]	rp/n (relative inhibition potency per DNJ unit)
CC(C)(C)c1cc2c(OCc3cn(CCCCCCCCCN4C[C@H](O)[C@@H](O)[C@H](O)[C@H]4CO)nn3)c(c1)Cc1cc(C(C)(C)C)cc(c1OCc1cn(CCCCCCCCCN3C[C@H](O)[C@@H](O)[C@H](O)[C@H]3CO)nn1)Cc1cc(C(C)(C)C)cc(c1OCc1cn(CCCCCCCCCN3C[C@H](O)[C@@H](O)[C@H](O)[C@H]3CO)nn1)Cc1cc(C(C)(C)C)cc(c1OCc1cn(CCCCCCCCCN3C[C@H](O)[C@@H](O)[C@H](O)[C@H]3CO)nn1)Cc1cc(C(C)(C)C)cc(c1OCc1cn(CCCCCCCCCN3C[C@H](O)[C@@H](O)[C@H](O)[C@H]3CO)nn1)Cc1cc(C(C)(C)C)cc(c1OCc1cn(CCCCCCCCCN3C[C@H](O)[C@@H](O)[C@H](O)[C@H]3CO)nn1)Cc1cc(C(C)(C)C)cc(c1OCc1cn(CCCCCCCCCN3C[C@H](O)[C@@H](O)[C@H](O)[C@H]3CO)nn1)Cc1cc(C(C)(C)C)cc(c1OCc1cn(CCCCCCCCCN3C[C@H](O)[C@@H](O)[C@H](O)[C@H]3CO)nn1)C2	competitive inhibitors	320	73
CC(C)(C)c1cc2c(OCc3cn(CCCCCCN4C[C@H](O)[C@@H](O)[C@H](O)[C@H]4CO)nn3)c(c1)Cc1cc(C(C)(C)C)cc(c1OCc1cn(CCCCCCN3C[C@H](O)[C@@H](O)[C@H](O)[C@H]3CO)nn1)Cc1cc(C(C)(C)C)cc(c1OCc1cn(CCCCCCN3C[C@H](O)[C@@H](O)[C@H](O)[C@H]3CO)nn1)Cc1cc(C(C)(C)C)cc(c1OCc1cn(CCCCCCN3C[C@H](O)[C@@H](O)[C@H](O)[C@H]3CO)nn1)Cc1cc(C(C)(C)C)cc(c1OCc1cn(CCCCCCN3C[C@H](O)[C@@H](O)[C@H](O)[C@H]3CO)nn1)Cc1cc(C(C)(C)C)cc(c1OCc1cn(CCCCCCN3C[C@H](O)[C@@H](O)[C@H](O)[C@H]3CO)nn1)Cc1cc(C(C)(C)C)cc(c1OCc1cn(CCCCCCN3C[C@H](O)[C@@H](O)[C@H](O)[C@H]3CO)nn1)Cc1cc(C(C)(C)C)cc(c1OCc1cn(CCCCCCN3C[C@H](O)[C@@H](O)[C@H](O)[C@H]3CO)nn1)C2	competitive inhibitors	80000	–
CC(C)(C)c1cc2c3c(c1)Cc1cc(C(C)(C)C)cc(c1OCc1cn(CCCCCCCCCN4C[C@H](O)[C@@H](O)[C@H](O)[C@H]4CO)nn1)Cc1cc(C(C)(C)C)cc(c1OCc1cn(CCCCCCCCCN4C[C@H](O)[C@@H](O)[C@H](O)[C@H]4CO)nn1)Cc1cc(C(C)(C)C)cc(c1OCc1cn(CCCCCCCCCN4C[C@H](O)[C@@H](O)[C@H](O)[C@H]4CO)nn1)Cc1cc(C(C)(C)C)cc(c1OCc1ccc(cc1)CO3)Cc1cc(C(C)(C)C)cc(c1OCc1cn(CCCCCCCCCN3C[C@H](O)[C@@H](O)[C@H](O)[C@H]3CO)nn1)Cc1cc(C(C)(C)C)cc(c1OCc1cn(CCCCCCCCCN3C[C@H](O)[C@@H](O)[C@H](O)[C@H]3CO)nn1)Cc1cc(C(C)(C)C)cc(c1OCc1cn(CCCCCCCCCN3C[C@H](O)[C@@H](O)[C@H](O)[C@H]3CO)nn1)C2	competitive inhibitors	380	82
